Data reported in patent US10391151B2, “Dilute surfactant or isolated surfactant protein solution for the reduction of surface tension in the lung” (The Trustees of the Stevens Institute of Technology, priority 2015, dated 2019).

Experiments:
[1] = system: surface alveoli of the isolated adult rat lung; test: Surface tension determination in alveoli of the isolated adult rat lung (Method 1); settings: adult rat lung (FIGS. 1A-1D, injury score and surface tension)
Experimental: Method 1. Surface tension determination in the adult rat lung. In the isolated adult rat lung, a surface alveolus is micropunctured and a test solution, labeled with a low concentration of fluorescent dye verified not to alter surface tension, is instilled. In flooded alveoli, the air-liquid interface forms a meniscus, at which surface tension is determined as follows. Alveolar air pressure is determined with a transducer at the trachea of the constantly-inflated lung. Alveolar liquid phase pressure is determined by servo-nulling pressure measurement. Meniscus radius of curvature is determined by confocal microscopy. Surface tension is calculated according to the Lapalce relation.
1. direct surface tension determination in surface alveoli of the isolated adult rat lung, which contains native lung surfactant, following alveolar instillation of a test solution;

[2] = Surface tension in a liquid drop in vitro (Method 4); assay type: physicochemical
Experimental: Method 4. Surface tension in a liquid drop. […] Liquid pressure in the drop is determined by servo-nulling pressure measurement; interfacial radius of curvature is determined by confocal microscopy; and air pressure is known to be atmospheric. Surface tension is calculated according to the Laplace relation and found to be 72±2 mN/m for normal saline, as expected.
4. surface tension determination in a normal saline drop containing known quantities of additional solutes and no lipids other than any that are added to it.

albumin: most abundant plasma protein, 66 kD; negatively charged facilitating solute
Albumin concentrations that facilitate the surface activity of 1 vol % SURVANTA solution [1]: 3-11 w/v %
Optimal albumin concentration for the facilitation of 1% SURVANTA ([2]; 3 μl normal saline drops (FIG. 4)): ~5%
Albumin concentration range that facilitates 1 vol % SURVANTA (upper end) ([2]; in vitro): < 10 vol %
Facilitation of the surface activity of SURVANTA ([2]; in vitro): required to facilitate
